According to US9242009B2, “Compositions and methods to treat neurodegenerative diseases” (The General Hospital Corporation, priority 2012, dated 2016):

Experiments:
[1] = mouse, in vivo, ip
[2] = tested on: murine primary cortical neurons
[3] = tested on: mice challenged with LPS; conditions: mouse, in vivo, ip

## Sodium sulfide [Na2S]
[1]
  Plasma sulfide levels: but not
[2]
  LDH release (cytotoxicity): markedly increased LDH release
[3]
  Swimming speed in Morris water-maze test: did not change it
